Data taken from US20240415914A1, “Water Dispersible Cannabinoid Compositions” (priority 2021, published 2024).

Type: physicochemical
Protocol: At each time period, 0.05 g of powder was dissolved in 10 ml-15 of ethanol, diluted to fall within the analytical range, and injected into the LCMSMS for analysis.

Vitamin E
Chemical stability over the entire period (result in words): no significant losses
